Values of other authors in patent publication US20110054031A1, “Ophthalmic NSAIDS as Adjuvants” (ISTA Pharmaceuticals, Inc., priority 2008, published 2011).

Amino acid sequences for entries named in this document (tags omitted). Residues count along the entry.
UniProt P23219, 24-599: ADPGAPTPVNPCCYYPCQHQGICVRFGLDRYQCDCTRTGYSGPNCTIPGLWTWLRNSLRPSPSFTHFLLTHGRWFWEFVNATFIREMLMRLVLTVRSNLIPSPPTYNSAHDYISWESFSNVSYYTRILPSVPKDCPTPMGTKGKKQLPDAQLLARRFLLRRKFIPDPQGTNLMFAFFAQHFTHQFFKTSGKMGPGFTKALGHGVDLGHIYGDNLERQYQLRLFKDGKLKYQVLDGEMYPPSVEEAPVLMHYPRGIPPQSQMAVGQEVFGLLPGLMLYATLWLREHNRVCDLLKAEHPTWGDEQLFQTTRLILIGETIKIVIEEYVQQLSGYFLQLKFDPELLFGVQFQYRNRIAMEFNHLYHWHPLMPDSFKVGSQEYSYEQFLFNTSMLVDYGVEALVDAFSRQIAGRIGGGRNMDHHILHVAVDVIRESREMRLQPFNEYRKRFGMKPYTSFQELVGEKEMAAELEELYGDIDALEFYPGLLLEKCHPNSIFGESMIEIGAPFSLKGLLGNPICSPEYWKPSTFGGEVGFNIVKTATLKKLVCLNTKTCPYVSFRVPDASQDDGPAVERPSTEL

Biological target: COX-1 (Homo sapiens, UniProt P23219)
Settings: read-out: IC50 COX-1; cited from earlier work

CC(C(=O)O)c1ccc(-c2ccccc2)c(F)c1 (racemic) [flurbiprofen, sodium (±)-2-(2-fluoro-4-biphenylyl)-propionate dihydrate]
IC50: 82 nM
